# Molecular target: SF-1 (Homo sapiens, UniProt Q13285)
# Protein sequences, listed by entry. Tags and fused reporters are not part of them.
# UniProt Q13285, whole entry: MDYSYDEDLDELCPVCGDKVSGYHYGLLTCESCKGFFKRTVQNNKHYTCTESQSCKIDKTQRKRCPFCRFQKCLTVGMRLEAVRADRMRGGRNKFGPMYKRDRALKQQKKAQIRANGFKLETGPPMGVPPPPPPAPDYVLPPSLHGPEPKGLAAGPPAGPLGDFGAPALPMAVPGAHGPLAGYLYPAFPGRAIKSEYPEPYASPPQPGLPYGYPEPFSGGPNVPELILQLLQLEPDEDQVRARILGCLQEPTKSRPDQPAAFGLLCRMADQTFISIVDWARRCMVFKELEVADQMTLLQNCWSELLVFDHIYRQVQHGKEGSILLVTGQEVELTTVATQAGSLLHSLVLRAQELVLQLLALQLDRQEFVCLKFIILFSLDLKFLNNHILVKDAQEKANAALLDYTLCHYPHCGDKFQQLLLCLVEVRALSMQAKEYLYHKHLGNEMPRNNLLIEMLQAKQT
# Assay: SF1 degradation induction in NCI-H295R SF-1-HiBiT cells (HiBiT DC50)
# Conditions: read-out: HiBiT DC50, 24 hr, concentration that induces 50% degradation of SF-1
smiles,measurement,value
COc1ccc([C@]2(CCN(Cc3ccc([C@H]4CC[C@H](CN5CCN(C(=O)c6ccc7c(c6)n(C)c(=O)n7C6CCC(=O)NC6=O)CC5)CC4)cc3)CC(C)(C)C(F)(F)F)CCOC(C)(C)C2)cc1 (stereo partly shown),DC50,5.3 nM
